Protein sequences, listed by entry. Tags and fused reporters are not part of them.
UniProt P49137, whole entry: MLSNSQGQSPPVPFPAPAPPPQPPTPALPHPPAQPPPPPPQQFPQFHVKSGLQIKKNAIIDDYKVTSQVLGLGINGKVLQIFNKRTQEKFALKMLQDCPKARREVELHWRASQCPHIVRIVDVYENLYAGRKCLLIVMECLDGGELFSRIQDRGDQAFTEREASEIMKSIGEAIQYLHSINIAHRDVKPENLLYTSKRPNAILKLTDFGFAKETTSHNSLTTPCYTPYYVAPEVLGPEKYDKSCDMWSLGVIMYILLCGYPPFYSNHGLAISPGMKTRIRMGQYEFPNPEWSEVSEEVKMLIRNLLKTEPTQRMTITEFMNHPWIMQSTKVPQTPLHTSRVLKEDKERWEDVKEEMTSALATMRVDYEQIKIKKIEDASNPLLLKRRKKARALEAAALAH

According to US20220251105A1, “METHODS OF TREATING A MK2-MEDIATED DISORDER” (Celgene CAR LLC, priority 2019, published 2022):

Molecular target: MK2 (Homo sapiens, UniProt P49137)
Type: binding
Parameters: Full-length histidine-tagged human recombinant MK2 was incubated; histidine tag
Conditions: recombinant MK2, Cys140

CCOCc1cnc(Cl)nc1Oc1ccc2c(ccc3sc4c(c32)NC[C@@H](C)NC4=O)n1 [Compound 1]
covalent modification of MK2: formed a covalent bond with human recombinant MK2; also recorded: covalently modifies recombinant MK2 at Cys140

“Also recorded” adds a separate entry of the source.
